Active and inactive are the calls of the source. The rule behind the calls is not given here.

The chains behind the UniProt entries cited, without tags or fusion partners.
UniProt P33533, whole entry: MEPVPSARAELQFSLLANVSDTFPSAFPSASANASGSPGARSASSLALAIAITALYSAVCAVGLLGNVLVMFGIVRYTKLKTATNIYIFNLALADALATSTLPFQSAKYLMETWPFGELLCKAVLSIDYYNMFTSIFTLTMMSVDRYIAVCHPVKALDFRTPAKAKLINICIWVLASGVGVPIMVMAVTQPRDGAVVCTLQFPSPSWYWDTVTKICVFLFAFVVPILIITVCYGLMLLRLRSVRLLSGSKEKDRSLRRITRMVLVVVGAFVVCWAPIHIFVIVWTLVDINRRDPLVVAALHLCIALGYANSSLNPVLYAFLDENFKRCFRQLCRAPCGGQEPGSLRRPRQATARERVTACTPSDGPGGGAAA

The target in this experiment is Delta-type opioid receptor (Rattus norvegicus) (UniProt P33533). In words: Agonist activity at rat delta opioid receptor expressed in rat C6 cells assessed as stimulation of [35S]-GTPgammaS binding at 10 uM after 1 hr by liquid scintillation counting analysis relative to DPDPE. The experiment is classed as functional, cell-based. (GTPγS is a poorly hydrolysed GTP analogue; its binding reports G protein activation.)
As for `Cc1cc(O)cc(C)c1C[C@H](N)C(=O)N1CCN(CCCCc2ccccc2)CC1`, the “%max” value is “inactive”.
In the case of `Cc1cc(O)cc(C)c1C[C@H](N)C(=O)N1CCC(Cc2ccccc2)CC1` it was “inactive”.
Under `Cc1cc(O)cc(C)c1C[C@H](N)C(=O)N1CCN(C/C=C\Cc2ccccc2)CC1` stands “inactive”; under `Cc1cc(O)cc(C)c1C[C@H](N)C(=O)N1CCN(CCCCCc2ccccc2)CC1`, “inactive”; under `Cc1cc(O)cc(C)c1C[C@H](N)C(=O)N1CCN(CCC(c2ccccc2)c2ccccc2)CC1`, “inactive”.
Consider `Cc1cc(O)cc(C)c1C[C@H](N)C(=O)N1CCC(Cc2ccccc2)c2ccccc21` (some centres undefined), for which the “%max” value is “inactive”.
In the case of `Cc1cc(O)cc(C)c1C[C@H](N)C(=O)N1CCN(CCCc2ccccc2)CC1` it was “inactive”; in that of `Cc1cc(O)cc(C)c1C[C@H](N)C(=O)N1CCN(C/C=C/Cc2ccccc2)CC1`, “inactive”; in that of `Cc1cc(O)cc(C)c1C[C@H](N)C(=O)N1CCC(CCCc2ccccc2)CC1`, “inactive”.

Values taken from ChEMBL document CHEMBL3102699, “Synthesis and evaluation of 4-substituted piperidines and piperazines as balanced affinity μ opioid receptor (MOR) agonist/δ opioid receptor (DOR) antagonist ligands” (Bioorg Med Chem Lett, 2014).
